# In patent publication US7445764B1, “Carrier-drug conjugate” (priority 1999, dated 2008):
# Amino acid sequences for entries named in this document (tags omitted). Residues count along the entry.
# UniProt P14780, 107-707 limits assumed: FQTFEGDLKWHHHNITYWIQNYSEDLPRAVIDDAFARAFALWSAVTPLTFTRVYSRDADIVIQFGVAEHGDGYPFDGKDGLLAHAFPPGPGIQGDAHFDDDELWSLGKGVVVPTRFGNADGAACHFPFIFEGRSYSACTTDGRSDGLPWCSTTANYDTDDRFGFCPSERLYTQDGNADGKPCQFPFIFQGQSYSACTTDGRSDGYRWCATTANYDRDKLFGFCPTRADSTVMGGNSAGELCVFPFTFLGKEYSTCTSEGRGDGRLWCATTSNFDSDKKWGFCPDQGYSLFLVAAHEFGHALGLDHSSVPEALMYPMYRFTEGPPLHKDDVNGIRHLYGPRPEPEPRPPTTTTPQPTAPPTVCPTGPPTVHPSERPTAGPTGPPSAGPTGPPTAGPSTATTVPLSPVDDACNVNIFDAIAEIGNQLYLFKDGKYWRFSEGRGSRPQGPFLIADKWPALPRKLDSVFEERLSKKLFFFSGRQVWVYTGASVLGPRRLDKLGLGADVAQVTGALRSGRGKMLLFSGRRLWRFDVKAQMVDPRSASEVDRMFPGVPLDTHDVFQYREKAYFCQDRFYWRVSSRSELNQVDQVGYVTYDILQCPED
# Molecular target: T1, matrix metalloprotease MMP 9 (Homo sapiens, UniProt P14780)
# T1 construct: purchased Calbiochem, Germany
# Experiment: Cleavage of the conjugate by activated MMP 9, HPLC gel chromatography
# Assay type: biochemical
# Conditions: 200 μL of 100 μM conjugate, 30 minutes at 37° C., trypsine/aprotinine-activated MMP 9 (2 mU); detection at 495 nm
# Experimental: The absorption at 495 nm is also plotted versus the retention time in min. (A) Chromatogram of the conjugate HSA-Cys^34-2 before incubation with MMP 9 (t=0). (B) Chromatogram of the conjugate HSA-Cys^34-2 after incubation with MMP 9 for 30 min (t=30 min) and also showing a peak for fragment DOXO-Gln-Gly-Ala-Ile residues 1-4 of SEQ ID No. 9.
# is recognized by the matrix metalloprotease MMP 9 and cleaved between isoleucine and glycine. This was shown by the following experiment: 200 μL of a 100 μM solution of HSA-Cys^34-2 was incubated for 30 minutes at 37° C. with trypsine/aprotinine-activated MMP 9 (2 mU, from Calbiochem, Germany).
substance,measurement,value
HSA-Cys^34-2,Liberation of DOXO-Gln-Gly-Ala-Ile by cleavage with MMP 9,liberation of DOXO-Gln-Gly-Ala-Ile due to cleavage with MMP 9 was confirmed
